Assay results as given in ChEMBL document CHEMBL1201862, “PubChem BioAssay data set” (2004).
Some of the results follow. Only a part of the results of these assays is listed, not drawn at random. Activity calls are given as the source filed them. No cut-off for these calls is given here.

Amino acid sequences for entries named in this document (tags omitted).
UniProt P84022, whole entry, looked up: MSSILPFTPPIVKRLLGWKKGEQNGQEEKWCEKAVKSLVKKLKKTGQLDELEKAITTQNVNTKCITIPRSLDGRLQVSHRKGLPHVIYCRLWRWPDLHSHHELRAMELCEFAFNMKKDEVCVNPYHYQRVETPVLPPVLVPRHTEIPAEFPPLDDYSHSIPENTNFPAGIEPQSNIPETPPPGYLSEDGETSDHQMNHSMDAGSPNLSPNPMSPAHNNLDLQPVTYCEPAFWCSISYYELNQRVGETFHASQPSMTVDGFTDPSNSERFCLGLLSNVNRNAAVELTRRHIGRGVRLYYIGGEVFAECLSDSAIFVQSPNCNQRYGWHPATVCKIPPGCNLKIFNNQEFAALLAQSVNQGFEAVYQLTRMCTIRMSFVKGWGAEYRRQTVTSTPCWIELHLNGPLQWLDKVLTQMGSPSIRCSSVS

The compounds below were run against Mothers against decapentaplegic homolog 3 (Homo sapiens) (UniProt P84022) (assay: qHTS for Inhibitors of TGF-b. [Related pubchem assays (depositor defined):AID588856, AID588860]).
Format: functional
For `CC[n+]1c(/C=C/N(C)c2ccccc2)oc2ccccc21`, the Potency was “inactive”.
`O=C(O)[C@@H](O)c1ccccc1` was tested, and the Potency was “inactive”.
